Yeast mating assay 2: variants of the scFv Ab-95

Source: Engelhart et al. 2022 (doi:10.1038/s41597-022-01779-4), MIT Lincoln Laboratory and A-Alpha Bio; data file from the FLAb repository.

Antigen: PDVDLGDISGINAS, a 14-residue peptide of the SARS-CoV-2 spike HR2 region.

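Phage display of a naive human antibody library on the peptide gave the parent. In library AAYL52, one, two or three CDR residues were substituted; doubles and triples were drawn at random. The scFvs were displayed on barcoded MATa yeast, the peptide on MATalpha yeast. Mating (16 h, 30 °C) was followed by selection of diploids and sequencing of their barcodes. Read counts were normalised to the haploid input and turned into Kd by a linear fit to BCL2-family pairs of known affinity, for each replicate. Mating was done three times.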

Parent: Ab-95, a human scFv built as VH, the linker GGGGSGGGGSGGGGS, VL. Only the CDRs of the light chain vary.
VH: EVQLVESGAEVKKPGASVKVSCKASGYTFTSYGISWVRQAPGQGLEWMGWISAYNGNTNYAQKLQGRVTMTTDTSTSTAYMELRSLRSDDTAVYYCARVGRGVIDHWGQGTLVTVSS
VL: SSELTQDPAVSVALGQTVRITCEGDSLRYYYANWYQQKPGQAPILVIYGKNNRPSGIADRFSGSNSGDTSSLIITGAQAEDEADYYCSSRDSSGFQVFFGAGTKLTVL

Changes read parent residue, position, new residue, counted from the first residue of the VL shown. Numbers give log10(Kd / nM), so 0 is 1 nM and 3 is 1 µM. Smaller is tighter. Averages over replicates are reported, and they cover detected replicates only. "ND" marks a missing value. The strain was present, yet no cells mated with the target were sequenced in that replicate, which points to weak or no binding.

| changes | log10 Kd (nM) by replicate | log10 Kd (nM), mean |
|---|---|---|
| N33I/K50G/G94W | ND / 4.20 / ND | 4.20 |
| R28C/R53K/P54N | 3.22 / 5.10 / 3.09 | 3.80 |
| Y31N/A32N/F98R | 4.03 / 3.43 / 3.32 | 3.59 |
| G24F/R28M/S92H | 2.87 / 2.55 / 2.11 | 2.51 |
| N33F/N51S/N52Q | 3.87 / 4.20 / ND | 4.04 |
| Y31M/N51G/P54Q | 2.92 / 2.35 / 2.32 | 2.53 |
| G49F/S92V/S93H | 3.19 / ND / ND | 3.19 |
| Y31R/D91K/G94N | 3.14 / 3.27 / 2.40 | 2.94 |
| Y29Q/S89A/S93N | 3.04 / 2.53 / 2.34 | 2.64 |
| D25M/S89V/Q96Y | ND / ND / ND | ND |
| K50P/P54M/V97W | 2.58 / 3.27 / 2.95 | 2.93 |
| E23R/S92P/F95V | 2.47 / 2.37 / 2.07 | 2.30 |
| Y30D/A32M/Q96M | 4.79 / ND / ND | 4.79 |
| P54N/S89F/D91A | ND / 5.96 / ND | 5.96 |
| N52D/P54E/G94N | 3.57 / 3.56 / ND | 3.57 |
| E23Q/Y30G/S88R | 0.50 / 0.65 / -0.45 | 0.23 |
| G24Q/A32T/K50Q | ND / ND / ND | ND |
| S26E/S89N/R90H | 3.53 / 3.69 / ND | 3.61 |
| R28Q/N33F/K50T | 3.43 / ND / 4.04 | 3.74 |
| E23I/Y31S/S88N | 1.90 / 1.71 / 1.25 | 1.62 |
| G24T/R53G/P54F | 4.63 / 3.62 / ND | 4.13 |
| D25C/R53P | ND / 4.71 / ND | 4.71 |
| D25T/Y29W/D91F | 3.89 / 4.78 / 3.46 | 4.04 |
| S26H/N51M/F98C | 5.31 / ND / ND | 5.31 |
| N51C/N52Y/D91Q | 4.27 / ND / ND | 4.27 |

The remaining entries, values ahead:

| log10 Kd (nM) by replicate | log10 Kd (nM), mean | changes |
|---|---|---|
| 4.84 / ND / 4.43 | 4.63 | E23Y/R90Y |
| 5.81 / ND / ND | 5.81 | N33A/S88D/D91P |
| 3.89 / ND / ND | 3.89 | N51P/D91S/Q96I |
| ND / ND / ND | ND | R53W/S89H/S92N |
| ND / ND / ND | ND | G24R/N33K/S55W |
| ND / ND / ND | ND | Y29Q/Y31N/D91N |
| 3.72 / 2.91 / 3.68 | 3.43 | Y31I/N51H/S92A |
| 4.91 / ND / 3.76 | 4.33 | Y29P/R53V/F98A |
| 3.76 / ND / ND | 3.76 | G49F/N52T/Q96H |
| ND / ND / ND | ND | N51P/S89V/S92R |
| ND / ND / ND | ND | R28Q/Y30C/D91N |
| ND / ND / ND | ND | G24K/P54L/G94A |
| ND / 5.02 / ND | 5.02 | A32H/G49L/R53M |
| 2.18 / 2.28 / 1.96 | 2.14 | Y31H/N52W |
| ND / 4.82 / 3.63 | 4.22 | S26P/Y31T/N51W |
| 3.31 / 3.65 / 3.79 | 3.58 | L27Y/P54H |
| 3.19 / 2.40 / 3.56 | 3.05 | D25G/N33L/N52A |
| 2.95 / 3.32 / 3.44 | 3.24 | N52G/S55W/D91T |
| 4.51 / ND / ND | 4.51 | Y31M/G94I/V97M |
| ND / 3.66 / 4.59 | 4.12 | S88T/S92F |
| 2.38 / 2.40 / 2.49 | 2.43 | A32T/F98Y |
| 2.55 / 3.40 / 2.83 | 2.93 | K50A/R90P/D91G |
| ND / ND / ND | ND | E23N/R53W/P54D |
| 3.75 / 3.61 / ND | 3.68 | A32Q/S92C/G94Q |
| 1.41 / 1.54 / 0.95 | 1.30 | S55Q/S89L |

Extract of 6 entries:

changes,log10 Kd (nM) by replicate,"log10 Kd (nM), mean"
K50P/P54M/V97W,2.58 / 3.27 / 2.95,2.93
E23I/Y31S/S88N,1.90 / 1.71 / 1.25,1.62
E23R/S92P/F95V,2.47 / 2.37 / 2.07,2.30
N52D/P54E/G94N,3.57 / 3.56 / ND,3.57
G49F/N52T/Q96H,3.76 / ND / ND,3.76
A32T/F98Y,2.38 / 2.40 / 2.49,2.43

Three control strains display no target. For library AAYL52, 28% of the pairings with them gave a signal, with a median of 3.91 and one signal in twenty below 2.90, so weak values seen in few replicates may be background.